pKi: −log10 of the molar value.
Biological target: Oxysterols receptor LXR-beta (Homo sapiens, UniProt P55055)
Assay: LXR alpha/beta Radioligand Binding Assay

Chains of the proteins cited; added tags and fusions are not shown.
UniProt P55055, whole entry, looked up: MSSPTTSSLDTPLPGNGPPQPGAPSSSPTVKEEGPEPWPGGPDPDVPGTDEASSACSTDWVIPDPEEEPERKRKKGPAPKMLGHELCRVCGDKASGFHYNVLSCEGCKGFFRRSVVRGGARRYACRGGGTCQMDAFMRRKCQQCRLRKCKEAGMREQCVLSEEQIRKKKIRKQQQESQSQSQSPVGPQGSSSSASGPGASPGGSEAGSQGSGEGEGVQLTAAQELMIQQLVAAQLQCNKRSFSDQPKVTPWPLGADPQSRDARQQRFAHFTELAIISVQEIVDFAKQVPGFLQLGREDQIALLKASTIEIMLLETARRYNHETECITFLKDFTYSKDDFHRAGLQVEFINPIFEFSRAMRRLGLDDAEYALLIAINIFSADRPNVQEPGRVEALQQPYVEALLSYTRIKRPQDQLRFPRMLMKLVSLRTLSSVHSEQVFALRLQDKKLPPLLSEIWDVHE

`CC(C)[C@@H]1CN(c2ccc(F)c(S(C)(=O)=O)c2)CCN1C(=O)OCC(F)(F)F` was tested, and the pKi was 6.54.

— BindingDB's records for US10144715, “Piperazine derivatives as liver X receptor modulators” (2018)
